Data reported in patent publication US20220211914A1, “HYALURONIC ACID HYDROGELS WITH PROLONGED ANTIMICROBIAL ACTIVITY” (INSTITUT NATIONAL DE LA SANTE ET DE LA RECHERCHE MEDICALE …, priority 2019, published 2022).

Test system: Balb/3T3 cells
Assay: Direct in vitro cytotoxicity test (ISO 10993) with MTT test
Conditions: 24 h contact
Experimental: FIG. 14: Cell viability evaluation by MTT test. Balb/3T3 cells were seeded in 24-well plate and put in contact with HA hydrogel discs loaded or not with PARs for 24 h. HA discs correspond to BDDE-crosslinked HA hydrogel discs without PAR, and HA+PARs correspond to HA hydrogels loaded with different PAR concentrations (mg/mL). (A) Cell images after 24 h of direct in vitro cytotoxicity test. (B) Cell viability measured by MTT test. Dashed line corresponds to 70% viability (cytotoxicity limit).
Direct in vitro cytotoxicity test consists in putting material in contact with the cells for 24 h and performing MTT test to evaluate cell viability. According to ISO 10993, the tested material should cover approximately 1/10 of cell layer surface, which corresponds to ˜5 mm hydrogel discs per well of a 24-well plate.
After 24 h at 37° C., hydrogel discs were removed and MTT test was performed in order to measure cell metabolic activity, which often serves to estimate cell viability. […] The number of viable cells correlates to the colour intensity determined by photometric measurements after dissolving the formazan in alcohol (from ISO 10993).
So the discs, loaded or not with PAR, were sterilized and placed onto ˜80% confluent layer of Balb/3T3 cells. For MTT assay, the cells were incubated for 2 h in 0.2 mg/mL MTT-containing cell culture medium. The medium was then removed and formazan was dissolved in DMSO. Absorbance of resulting solutions was measured at 570 nm using spectrophotometer and images were taken around and under the discs to evaluate cell morphology.

[1] = hydrogels loaded with 0.05 mg/mL

Row | Substance | cytotoxicity by ISO 10993 norms (0.1 mg/mL-loaded hydrogels) | cytotoxicity by ISO 10993 norms [1] | cytotoxicity by ISO 10993 norms (PAR200-loaded hydrogels, loading concentration not stated)
1 | poly-L-arginine [PAR10] | non-cytotoxic | non-cytotoxic | –
2 | poly-L-arginine [PAR30] | non-cytotoxic | non-cytotoxic | –
3 | poly-L-arginine [PAR200] | – | – | cytotoxic
